Consider one compound from patent US11426472B2, “Fibroblast activation protein (FAP) targeted imaging and therapy in fibrosis” (Purdue Research Foundation, priority 2018, dated 2022).

Chains of the proteins cited; added tags and fusions are not shown.
UniProt Q12884, whole entry: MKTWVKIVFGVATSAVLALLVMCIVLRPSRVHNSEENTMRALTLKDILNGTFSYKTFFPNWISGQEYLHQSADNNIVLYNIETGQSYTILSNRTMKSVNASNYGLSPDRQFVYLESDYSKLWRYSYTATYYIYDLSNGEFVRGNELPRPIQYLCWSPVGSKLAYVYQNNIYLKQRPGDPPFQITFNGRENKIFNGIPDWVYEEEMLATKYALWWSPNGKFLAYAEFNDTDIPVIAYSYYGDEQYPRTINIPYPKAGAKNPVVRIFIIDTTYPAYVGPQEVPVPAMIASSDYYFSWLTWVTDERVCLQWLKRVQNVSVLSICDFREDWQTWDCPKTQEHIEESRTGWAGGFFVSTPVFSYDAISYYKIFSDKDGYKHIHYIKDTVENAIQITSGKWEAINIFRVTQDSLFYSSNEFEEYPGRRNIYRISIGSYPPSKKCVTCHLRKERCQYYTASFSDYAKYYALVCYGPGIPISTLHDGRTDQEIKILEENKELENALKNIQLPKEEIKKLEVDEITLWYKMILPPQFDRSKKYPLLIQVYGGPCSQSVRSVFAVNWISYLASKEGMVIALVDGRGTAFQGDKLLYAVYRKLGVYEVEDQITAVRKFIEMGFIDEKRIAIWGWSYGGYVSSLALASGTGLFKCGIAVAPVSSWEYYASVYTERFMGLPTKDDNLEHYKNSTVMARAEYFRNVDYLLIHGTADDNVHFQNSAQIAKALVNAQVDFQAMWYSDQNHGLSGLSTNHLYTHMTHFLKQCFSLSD

Each structure is given as a SMILES string.

This test deals with FAP (Homo sapiens, UniProt Q12884). The test can be described thus: Fluorescence binding affinity study in FAP-transfected HLF1 cells. Particulars: read-out: binding affinity to FAP. As for the experimental part:
FAPL-FITC targets mouse FAP in mouse fibroblast cells. Fluorescence binding affinity study of FAPL_FITC in HLF-hFAP cells. (C) Binding of FAPL_FITC to TGFb induced mouse NIH-3T3 cell line.
In order to determine the conjugate's in vitro binding features such as binding affinity to FAP, and its bio distribution within FAP expressing cells, FAPL-FITC conjugate was incubated with a FAP transfected cell line HLF1 (human fibroblast cells), confocal microscopy and flow cytometry are used to observe the conjugate's specific targeting to FAP expressing cell line, and its subsequent endocytosis in the cell line. […] In addition, FAP ligand can recognize and target FAP with good specificity. FAPL_FITC conjugates are internalized upon receptor engagement.

For `C[C@H](NC(=O)c1ccnc(CNC(=O)CCC(=O)NC(CS)C(=O)O)c1)C(=O)N1CC(F)(F)C[C@H]1C#N` (stereo partly shown), the Kd is 3 nM.
